This assay addresses Mu-type opioid receptor (Rattus norvegicus, UniProt P33535). Briefly: Inhibition of [3H]DAGO binding to mu 1 opioid receptor in rat brain membranes. It is filed as cell membranes. In outline:
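Rat brain membranes, 0.6–0.7 mg protein, in 50 mM Tris-HCl pH 7.4 with 1 nM [3H]DAGO. Incubated 40 min at 35 °C, then filtered and washed with cold buffer. Bound radioactivity counted by scintillation. Nonspecific binding taken with 10 µM levorphanol, triplicates. Nine unlabeled-ligand concentrations, Hill-plot fit, Ki by Cheng-Prusoff. Three to six independent determinations.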

The chains behind the UniProt entries cited, without tags or fusion partners.
UniProt P33535, whole entry: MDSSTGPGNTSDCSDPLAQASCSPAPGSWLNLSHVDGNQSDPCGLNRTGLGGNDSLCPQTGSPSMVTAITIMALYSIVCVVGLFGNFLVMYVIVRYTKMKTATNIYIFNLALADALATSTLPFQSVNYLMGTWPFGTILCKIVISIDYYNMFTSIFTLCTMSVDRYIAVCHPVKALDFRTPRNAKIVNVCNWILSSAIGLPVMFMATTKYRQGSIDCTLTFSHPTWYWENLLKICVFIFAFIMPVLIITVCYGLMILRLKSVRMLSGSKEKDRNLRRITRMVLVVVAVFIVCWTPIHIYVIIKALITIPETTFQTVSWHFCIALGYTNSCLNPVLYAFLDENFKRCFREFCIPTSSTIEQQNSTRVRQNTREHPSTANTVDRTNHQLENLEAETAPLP

In general, Ki refers to a measure of affinity in units of concentration, obtained from inhibition or displacement. Read a high Ki as a looser hold on the target.

`C[C@@H](NC(=O)[C@@H](N)Cc1ccc(O)cc1)C(=O)NCC(=O)N(C)[C@@H](Cc1ccccc1)C(=O)NCCO` [DAMGO]: the Ki is 3.9 nM.
